Literature values as cited in paper PMC3759941 (International Journal of Molecular Sciences, 2013).

System: EeAChE
Settings: read-out: IC50 values EeAChE; Table 3

For `ON=Cc1cc[n+](COC[n+]2ccc(C=NO)cc2)cc1`, the IC50 is listed as 6.7 mM.
